The values below come from US20110118274A1, “PROTEASOME INHIBITORS AND THEIR USE IN TREATING PATHOGEN INFECTION AND CANCER” (CORNELL RESEARCH FOUNDATION, INC., priority 2007, published 2011).

Series [1] addresses human 20S-β5 (Hu20S PA28) (Homo sapiens, UniProt P28074). The series is described as follows: Kinetics of inhibition of human 20S proteasome β5 site in presence of PA28. The following applies: for kobs/[I] H20S-β5: corrected for substrate competition; for reversibility of inactivation of human proteasome β5 subunit: plots of kobs vs [I] not passing through origin. The source says: The “open gate” mutant of recombinant Mtb proteasome (PrcAB-OG) was over-expressed in E. coli and purified as reported (Lin et al., “Mycobacterium tuberculosis prcBA Genes Encode a Gated Proteasome With Broad Oligopeptide Specificity,” Mol. Microbiol. 59:1405-1416 (2006), which is hereby incorporated by reference in its entirety). Human red blood cell 20S and PA28 were purchased from Boston Biochem (Cambridge, Mass.). GL1, GL2, GL3, GL4 were purchased from TimTec LLC (DE, USA) and GL5, GL6, GL7 from ChemDiv, Inc. (CA, USA). Bortezomib was purchased from LC Laboratories (MA, USA). Substrates Ac-RFW-AMC, Ac-YQW-AMC were synthesized by AnaSpec (CA, USA) and used for detailed kinetic analyses. Different substrates were chosen according to the nature of the experiments.
Kinetic measurements were made on a Hitachi F-2500 fluorescence spectrophotometer with 0.238 nM PrcAB-OG in 20 mM HEPES, 0.5 mM EDTA, pH 7.5, 0.1 mg/mL BSA and 25 μM Ac-RFWAMC for Mtb PrcAB-OG or 25 μM Suc-LLVY-AMC for human 20S at 37° C. After steady state conditions were achieved, inhibitors were added and substrate cleavage was monitored (λex=360 nm, λex=460 nm) at 5-second intervals for 60 minutes or until no activity remained. The data were fitted to equation (Corbett et al., “The Growing Burden of Tuberculosis: Global Trends and Interactions with the HIV Epidemic,” Arch. Intern. Med. 163:1009-1021 (2003), which is hereby incorporated by reference in its entirety) to determine kobs ? using Prism (GraphPad Software, Inc. San Diego, Calif.).
As noted, the cytotoxicity of proteasome inhibitors is correlated with their inhibition of the proteasome's chymotryptic-like activity (Adams et al., “Proteasome Inhibitors: A Novel Class of Potent and Effective Antitumor Agents,” Cancer Res. 59:2615-2622 (1999), which is hereby incorporated by reference in its entirety). Accordingly, the next focus was placed on the chymotryptic-like site of the β5 subunit of proteasomes isolated from human erythrocytes in the presence of the human proteasome activator PA28 and obtained the kobs ? /[1] values for GL5 (tested over the range 50-100 μM, FIG. 2C), GL1 (2.5-20 μM), and GL3 (2.5-10 μM). The plots of kobs ? vs [I] for all three compounds yielded straight lines, indicating a simple one-step inactivation mechanism (Copeland, R.A., “Enzymes: A Practical Introduction to Structure, Mechanism, and Data Analysis,” pp. 305-349 (2000), which is hereby incorporated by reference in its entirety).

Series [2] deals with human monocyte-derived macrophages. The series is described as follows: Cytotoxicity, human monocyte-derived macrophages. The following applies: 100 μM, 7 days. The procedure:
Given that proteasome-inhibiting oxathiazol-2ones killed mycobacteria, their impact on the survival of mammalian cells was tested. […] In contrast, less than 10% of Vero cells remained viable after 4-day exposure to 25 nM bortezomib. Finally, because most Mtb in nature resides in human macrophages, we exposed human monocyte-derived macrophages (mostly multinucleated giant cells) to 100 μM GL3, GL5 or GL6 for 7 days. There was no morphologic sign of cytotoxicity. Again, in contrast, some of the human macrophages exposed to as little as 0.5 μM bortezomib for 7 days rounded up or appeared to disintegrate.

As to `O=c1oc(-c2cc3c(s2)CCCC3)ns1`, in series [1], the “kobs/[I] H20S-β5” value is 128 ± 12.3 M⁻¹ s⁻¹ and the “reversibility of inactivation of human proteasome β5 subunit” value is “reversible”. Further, the “morphologic sign of cytotoxicity” value in series [2] is on record as “no morphologic sign of cytotoxicity”.
Consider `O=c1oc(-c2cc3ccccc3s2)ns1`, for which, in series [1], the “kobs/[I] H20S-β5” value turned out to be 194 ± 5.5 M⁻¹ s⁻¹ and the “reversibility of inactivation of human proteasome β5 subunit” value is “reversible”.
